In PubChem BioAssay AID1631 (National Center for Advancing Translational Sciences (NCATS), 2009):
Values joined by “and” are separate entries in the source; they are usually repeats but may differ in a detail not shown here. Equal values may be shown once. This is a selection; strong and weak results do not stand in their true shares. Active and inactive are the calls of the source. Calls follow the shape of the dose curve; as a rule, active = well fitted activation curve with a large enough effect; inconclusive = small, poorly fitted or top-dose-only effect; inactive = no such curve, though single readings can be large or run the other way.

The chains behind the UniProt entries cited, without tags or fusion partners.
UniProt P14618, whole entry, looked up: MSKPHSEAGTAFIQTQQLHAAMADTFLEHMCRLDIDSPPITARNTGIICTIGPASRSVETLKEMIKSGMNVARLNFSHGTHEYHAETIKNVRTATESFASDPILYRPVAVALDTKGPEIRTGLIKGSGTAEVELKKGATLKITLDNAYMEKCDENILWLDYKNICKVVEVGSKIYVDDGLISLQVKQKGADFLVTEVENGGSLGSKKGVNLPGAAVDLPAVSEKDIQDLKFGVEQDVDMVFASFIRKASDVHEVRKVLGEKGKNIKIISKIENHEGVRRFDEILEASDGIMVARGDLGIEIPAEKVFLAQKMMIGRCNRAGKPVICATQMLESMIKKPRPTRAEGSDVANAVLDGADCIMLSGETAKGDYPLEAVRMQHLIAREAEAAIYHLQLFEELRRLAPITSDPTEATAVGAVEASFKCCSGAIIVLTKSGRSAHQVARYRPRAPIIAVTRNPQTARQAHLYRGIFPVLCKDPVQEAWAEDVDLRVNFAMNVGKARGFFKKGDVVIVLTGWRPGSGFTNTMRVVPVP

target: Pyruvate kinase PKM (Homo sapiens) (UniProt P14618); assay: qHTS Assay for Activators of Human Muscle isoform 2 Pyruvate Kinase; conditions: purified PKM2, Kinase-Glo ATP luminescence, 0% is enzyme alone, no compound; at 57.5 µM (top of the series); also: nearly all actives have a fitted effect of over 55% in size
Description: NIH Chemical Genomics Center [NCGC] Matthew G. Vander Heiden, M.D., Ph.D. [Harvard Medical School, 77 Avenue Louis Pasteur, Boston, MA 02115] MLPCN Grant: 1 R03 MH085679-01 NCGC Assay Overview: Human pyruvate kinase muscle 2 (hPK-M2) enzyme was supplied as a highly purified (>95% pure) preparation from Harvard Medical School and assayed for its ability to generate ATP from ADP using phosphoenolpyruvate (PEP) as a substrate. ATP generation was detected in a coupled reaction by luciferase-mediated luminescence, an ATP-dependent process. […] The enzyme was assayed at an intermediate level of activity to screen for both inhibitors and activators.
NCGC Assay Protocol Summary: Three uL of substrate mix (at r.t.) in assay buffer (50 mM Imidazole pH7.2, 50 mM KCl, 7 mM MgCl2, 0.01% Tween 20, 0.05% BSA) was dispensed into white solid bottom 1,536 well microtiter plates so that the final concentrations of substrates in the assay were 0.1 mM ADP and 0.5 mM PEP. 23 nL of compound were delivered by a pin tool and 1 uL of enzyme mix in assay buffer (4 degree Celsius) was added. Plates were incubated at room temperature for 1 hour. Two uL of detection mix (Kinase-Glo, Promega; at 4 degree Celsius protected from light) was added and luminescence read by a ViewLux (Perkin Elmer) at 5 second exposure/plate. Data were normalized to the uninhibited and AC100 inhibition (no enzyme). To monitor activation, the first column contained a titration of the activator, NCGC00031955-01 (16-point 1:2 dilutions in duplicate starting at 57 uM) and the first 16 rows of column 4 contained 57 uM of NCGC00031955-01.
% is scaled to controls: 0 for no effect and ±100 for the full control effect.

Structure (SMILES)	activation
c1nnnn1CCn1cnnn1	inactive: 1.34%
CC(C)C(=O)NC(Sc1ccccc1)C(Cl)(Cl)Cl (centres undefined)	inactive: -1.61%
O=P(Nc1nccs1)(c1ccccc1)c1ccccc1	inactive: -9.23%
O=P(Nc1nc2ccccc2s1)(c1ccccc1)c1ccccc1	inactive: 1.85%
C[C@H]1OP(=O)(Oc2ccccc2)[C@H](O)[C@H](O)[C@H]1N=[N+]=[N-] (some centres undefined)	inactive: 5.54%
O=P(Nc1ccccn1)(c1ccc(Br)cc1)c1ccc(Br)cc1	inactive: -8.65%
O=C(OC1CN2CCC1CC2)c1cccc(Cl)c1 (centres undefined)	inactive: -0.773%
Nc1ccc([As](=O)(O)c2ccc([N+](=O)[O-])cc2)cc1	inactive: -4.77%
C(Cc1nn[nH]n1)Cc1nn[nH]n1	inactive: -16.8%
O=[As](O)(c1ccccc1)c1ccc(O)cc1	inactive: -0.164%
O=[N+]([O-])c1ccc(O)c(/C=N/Nc2ccc([N+](=O)[O-])cc2[N+](=O)[O-])c1	inactive: -8.37%
O=[N+]([O-])c1ncn(CCn2cnc([N+](=O)[O-])n2)n1	inactive: 0.199%
CC(=O)NC(SC(=S)N(C)C)C(Cl)(Cl)Cl (centres undefined)	inactive: -0.846%
c1ccc(-c2nn[nH]n2)c(-c2nn[nH]n2)c1	inactive: -0.85%
CCOC(=O)NC(Sc1ccccc1)C(Cl)(Cl)Cl (centres undefined)	inactive: 3%
Cc1ccc(NP(=O)(Oc2cccc(C)c2)Oc2cccc(C)c2)nc1	inactive: -12.5%
CCNC(=S)/N=C(\N)N[N+](=O)[O-]	inactive: 2.64%
O=C(NC1CCS(=O)(=O)C1)NP(=S)(Oc1ccccc1)Oc1ccccc1 (centres undefined)	inactive: 0.0363%
Cc1ccccc1OP(=O)(Nc1ccccn1)Oc1ccccc1C	inactive: -3.58%
CN(C)C(=O)Oc1noc2ccccc12	inactive: -6.88%
O=c1c2cc([N+](=O)[O-])ccc2[nH]c2c([N+](=O)[O-])cc([N+](=O)[O-])cc12	inactive: -0.509%
CCC(=O)N1C2C3N(C(=O)CC)C1C1N(C(=O)CC)C(C(N1C(=O)CC)N3C(=O)CC)N2C(=O)CC	inactive: 5.45%

Structure (SMILES)	activation
COC(=O)c1cc2c(s1)N=C(c1ccccc1)N(C)P2(=O)N1CCOCC1 (centres undefined)	inactive: -4.19%
Cc1ccc(OP(=O)(Nc2ccccn2)Oc2ccc(C)cc2)cc1	inactive: 9.61%
CC(=O)NC(SC(=S)N(CC(C)C)CC(C)C)C(Cl)(Cl)Cl (centres undefined)	inactive: 0.956%
CC(C)(C)C(=O)NC(Sc1ccccc1)C(Cl)(Cl)Cl (centres undefined)	inactive: -6.76%
O=P1(Nc2nc3ccc(Cl)cc3s2)COc2ccccc2O1 (centres undefined)	inactive: -4.43%
CCOc1ccc(C2=NCC(CBr)S2)cc1 (centres undefined)	inactive: 0.205%
CC(=O)Nc1ccc(Oc2c([N+](=O)[O-])cc([N+](=O)[O-])cc2[N+](=O)[O-])cc1	inactive: 7.26%
C[C@@H]1C=CCP(=O)(Oc2ccccc2)O1 (some centres undefined)	inactive: 11.3%
C[C@H]1OP(=O)(Oc2ccccc2)C[C@@H]2O[C@@H]21 (some centres undefined)	inactive: 5.55%
Clc1ccc(Cl)c(NC2=NCC(CBr)S2)c1 (centres undefined)	inactive: 4.72%
CN1CCCC(OC(=O)C(c2ccccc2)c2ccccc2)C1 (centres undefined)	inactive: -3.99%
COc1ccccc1OP(=O)(Nc1ccc(C)cn1)Oc1ccccc1OC	inactive: 5.51%
Cc1ccc(OP(=O)(Nc2nccs2)Oc2ccc(C)cc2)cc1	inactive: -0.858%
Cc1ccc(N/C(=N/P(=O)(N2CCOCC2)N2CCOCC2)N2CCOCC2)cc1	inactive: 4.09%
NC(=O)c1cc([N+](=O)[O-])cc([N+](=O)[O-])c1N	inactive: -16%
Oc1ccccc1CNc1ccccn1	inactive: -0.109%
Cc1c2non([O-])c-2c(C)[n+](=O)[n+]1[O-]	inactive: -3.39%
O=C(NC(Sc1ccncn1)C(Cl)(Cl)Cl)c1ccccc1 (centres undefined)	inactive: -2.6%
CC(C)CC(=O)NC(Sc1ccc(Cl)cc1)C(Cl)(Cl)Cl (centres undefined)	inactive: 1.54%
Nc1cc(N)c2nonc2c1[N+](=O)[O-]	inactive: 1.98%
CCOP(=O)(Nc1ccccc1)OCC	inactive: 3.96% and inactive: 3.25%
Cc1cc(SC(NC(=O)c2ccc(F)cc2)C(Cl)(Cl)Cl)ncn1 (centres undefined)	inactive: -17.4%

Structure (SMILES)	activation
Cc1ccc(NP(=O)(Oc2ccccc2F)Oc2ccccc2F)nc1	inactive: 4.19%
O=P(Nc1nc2ccc(Cl)cc2s1)(c1ccccc1)c1ccccc1	inactive: 0.0364%
O=C(O)c1ccccc1[As](=O)(O)O	inactive: -12.5%
CC(=O)Nc1ccc([As](=O)(O)O)cc1	inactive: -5.26%
Nc1cccc2ccc([As](=O)(O)O)cc12	inactive: 18.7%
CCN(N=Nc1nonc1N)c1nonc1N	inactive: -2.95%
O=C(Nc1cc([As](=O)(O)O)ccc1O)c1ccccc1	inactive: -3.73%
O=C(O)CNc1ccc([As](=O)(O)O)cc1	inactive: 1.18%
O=[N+]([O-])c1cccc(NC2=NCC(CBr)S2)c1 (centres undefined)	inactive: 1.56%
CC(C)(C)C(=O)NC(Sc1ccncn1)C(Cl)(Cl)Cl (centres undefined)	inactive: -3.65%
Cc1ccc(NP(=O)(Oc2ccccc2)Oc2ccccc2)nc1	inactive: 1.04%
O=[N+]([O-])c1cc([N+](=O)[O-])c(CCNc2ccccc2)c([N+](=O)[O-])c1	inactive: 3.71%
O=[N+]([O-])c1cccc2n[nH]nc12	inactive: 0.545%
CC(=O)N1C2C3N(C(C)=O)C1C1N(C(C)=O)C(C(N1C(C)=O)N3C(C)=O)N2C(C)=O	inactive: -0.0404%
COc1ccc(C2=NCC(CBr)S2)cc1 (centres undefined)	inactive: 13.7%
CC1CCN(C(=O)Oc2c(Cl)cc(Cl)c3cccnc23)CC1	inactive: -5.45%
CC(C)=N/N=C(\N)N[N+](=O)[O-]	inactive: -27.4%
CN(C)C(=O)OCCc1n(C)cc[n+]1C	inactive: -4.42%
CCN(/C(=N/P(=O)(N1CCOCC1)N1CCOCC1)N1CCOCC1)c1ccc(OC)cc1	inactive: -1.78%
Nc1ccc([As](=O)(O)c2ccc(N)cc2)cc1	inactive: 2.92%
